# Source: PubChem BioAssay AID743257 (The Scripps Research Institute Molecular Screening Center, 2014)
# Chains of the proteins cited; added tags and fusions are not shown. Lines headed by an entry give the natural chain unless they say otherwise; changes in a name come on top.
# UniProt P78536: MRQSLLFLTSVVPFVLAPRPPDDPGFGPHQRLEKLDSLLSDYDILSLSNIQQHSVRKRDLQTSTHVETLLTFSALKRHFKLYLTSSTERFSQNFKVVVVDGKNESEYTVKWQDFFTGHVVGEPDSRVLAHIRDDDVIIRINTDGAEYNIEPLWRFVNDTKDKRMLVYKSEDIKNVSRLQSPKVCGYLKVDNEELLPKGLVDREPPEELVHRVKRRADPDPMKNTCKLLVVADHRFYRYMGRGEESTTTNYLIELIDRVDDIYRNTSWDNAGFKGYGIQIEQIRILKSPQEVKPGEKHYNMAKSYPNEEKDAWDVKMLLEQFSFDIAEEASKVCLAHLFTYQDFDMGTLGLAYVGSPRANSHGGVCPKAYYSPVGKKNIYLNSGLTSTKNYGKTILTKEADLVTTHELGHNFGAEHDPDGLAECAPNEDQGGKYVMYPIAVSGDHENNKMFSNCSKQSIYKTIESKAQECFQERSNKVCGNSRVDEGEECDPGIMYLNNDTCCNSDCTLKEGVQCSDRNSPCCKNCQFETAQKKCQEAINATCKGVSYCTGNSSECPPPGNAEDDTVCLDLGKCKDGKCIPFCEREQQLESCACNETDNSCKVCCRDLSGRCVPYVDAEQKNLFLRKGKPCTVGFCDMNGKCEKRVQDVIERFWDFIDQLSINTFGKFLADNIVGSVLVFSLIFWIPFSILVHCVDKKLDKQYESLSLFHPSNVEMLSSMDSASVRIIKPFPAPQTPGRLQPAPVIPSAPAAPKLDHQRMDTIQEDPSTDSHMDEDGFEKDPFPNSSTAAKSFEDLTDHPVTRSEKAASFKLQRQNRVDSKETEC
# This is a selection; strong and weak results do not stand in their true shares. Active and inactive are the calls of the source.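 How the source made its calls: active means mean inhibition across replicates above the hit cutoff set in the primary screen (cut at about 8.5% in these data); inactive means the rest.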
# Target: Disintegrin and metalloproteinase domain-containing protein 17 (Homo sapiens) (UniProt P78536)
# Assay: ADAM17 inhibitors, hit retest, confirmation, biochemical, QFRET peptide cleavage (AID 743257);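 further: 0% = DMSO wells and 100% = marimastat wells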
# Details: recombinant ADAM17, EDANS/DABCYL QFRET peptide cleavage; at 6.95 µM; stronger effect = higher value
# Summary of the method: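 Assay system: ADAM17 protease; Medium: 50 mM HEPES pH 7.5, 0.01% Brij; Reagent: EDANS/DABCYL DM2 peptide substrate; Doses: 6.95 µM compound, single dose; Schedule: 30 min preincubation, 3 h reaction; Technique: FRET fluorescence, excitation 359 nm, emission 460 nm; Read-out: percent inhibition; Controls: DMSO wells and 1 µM marimastat wells as references.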
row,SMILES,inhibition
1,O=[N+]([O-])c1cc([N+](=O)[O-])c(CCNc2ccccc2)c([N+](=O)[O-])c1,inactive: 2.66%
